Measured values taken from patent publication US20220411381A1, “PYRIMIDINEDIONE DERIVATIVES” (Bayer Aktiengesellschaft, priority 2019, published 2022).
Where two headings read alike, the source gives them in different places.

Experiments:
[1] = molecular target: T1, recombinant human BCAT2 enzyme (Homo sapiens, UniProt O15382); test: In vitro assay 1b: BCAT2 biochemical assay (coupled LeuDH/NADH fluorescence readout); further: recombinant human BCAT2 0.75 nM
T1 construct: purchased ATGen (South Korea) ATGP1523
T1 sequence (O15382 28-392): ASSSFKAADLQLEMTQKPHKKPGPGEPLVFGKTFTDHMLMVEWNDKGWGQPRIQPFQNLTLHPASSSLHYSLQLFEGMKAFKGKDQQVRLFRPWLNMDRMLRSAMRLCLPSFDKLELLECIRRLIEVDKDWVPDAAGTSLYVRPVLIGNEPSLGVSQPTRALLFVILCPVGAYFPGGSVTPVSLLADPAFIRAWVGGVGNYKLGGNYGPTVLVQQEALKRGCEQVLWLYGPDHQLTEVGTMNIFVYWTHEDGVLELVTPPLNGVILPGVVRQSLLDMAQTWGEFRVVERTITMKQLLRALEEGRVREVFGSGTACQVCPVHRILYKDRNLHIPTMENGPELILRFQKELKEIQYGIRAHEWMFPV

[2] = test system: U87-MG cells; test: In vitro assay 2: BCAT cellular assay, leucine in medium of U87-MG cells; type: cell-based; details: Homo sapiens, U-87 MG, 24 h, 24 hours incubation, leucine level in medium (LeuDH/diaphorase/resazurin readout)
[3] = test system: MDA-MB231 cells; test: In vitro assay 2: BCAT cellular assay, leucine in medium of MDA-MB231 cells; type: cell-based; details: Homo sapiens, MDA-MB-231, 24 h, 24 hours incubation, leucine level in medium (LeuDH/diaphorase/resazurin readout), read-out: MDAMB-231 IC50
[4] = molecular target: T2, recombinant human BCAT1 enzyme (Homo sapiens, UniProt P54687); test: In vitro assay 1a: BCAT1 biochemical assay (coupled LeuDH/NADH fluorescence readout); details: 32° C., 100 μM leucine, 50 μM α-ketoglutarate, NADH fluorescence over 90 min
T2 construct: purchased ATGen (South Korea) ATGP1479
T2 sequence (P54687 1-386): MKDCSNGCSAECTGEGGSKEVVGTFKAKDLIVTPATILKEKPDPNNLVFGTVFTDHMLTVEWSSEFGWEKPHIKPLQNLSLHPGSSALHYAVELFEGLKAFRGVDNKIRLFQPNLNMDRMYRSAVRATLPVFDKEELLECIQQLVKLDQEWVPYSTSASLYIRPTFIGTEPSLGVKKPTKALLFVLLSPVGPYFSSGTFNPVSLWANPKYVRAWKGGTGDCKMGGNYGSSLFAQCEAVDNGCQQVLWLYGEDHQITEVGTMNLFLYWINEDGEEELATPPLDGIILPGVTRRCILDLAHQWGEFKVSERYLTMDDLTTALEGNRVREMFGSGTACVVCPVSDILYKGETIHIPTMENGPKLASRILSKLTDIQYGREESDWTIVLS

[5] = recombinant human BCAT2 […], 32° C., 100 μM leucine, 50 μM α-ketoglutarate, NADH fluorescence over 90 min

Molecule	IC50 [2]	IC50 [3]	also measured
4-[4-(Methanesulfonyl)-2,6-dioxo-3,6-dihydropyrimidin-1(2H)-yl]-5-methoxy-2-(2-methylphenoxy)benzonitrile (atrop 2) [Example 81]			IC50 [1]: 16 µM
Cc1ccccc1Oc1cc(-n2c(=O)cc(C(F)(F)F)[nH]c2=O)c(Cl)cc1C#N (racemic) [Example 11, 5-Chloro-4-[2,6-dioxo-4-(trifluoromethyl)-3,6-dihydropyrimidin-1(2H)-yl]-2-(2-methylphenoxy)benzonitrile (rac)]	3.45 µM		
Cc1ccccc1Oc1cc(-n2c(=O)cc(C(F)(F)F)[nH]c2=O)c(Br)cc1C#N (racemic) [Example 18, 5-Bromo-4-[2,6-dioxo-4-(trifluoromethyl)-3,6-dihydropyrimidin-1(2H)-yl]-2-(2-methylphenoxy)benzonitrile (rac)]	4 µM	> 30 µM	
COc1cc(C#N)c(Oc2ccccc2C)cc1-n1c(=O)cc(C(F)(F)Cl)[nH]c1=O (racemic) [Example 25, 4-{4-[Chloro(difluoro)methyl]-2,6-dioxo-3,6-dihydropyrimidin-1(2H)-yl}-5-methoxy-2-(2-methylphenoxy)benzonitrile (rac)]		23 µM	
COc1cc(Cl)c(Oc2ccccc2C)cc1-n1c(=O)cc(C(F)(F)F)[nH]c1=O (racemic) [Example 27, 3-[4-Chloro-2-methoxy-5-(2-methylphenoxy)phenyl]-6-(trifluoromethyl)pyrimidine-2,4(1H,3H)-dione (rac)]	6.5 µM		
Cc1ccccc1Oc1cc(-n2c(=O)cc(C(F)(F)c3ccccc3)[nH]c2=O)c2ccccc2c1Cl (racemic) [Example 29, 3-[4-Chloro-3-(2-methylphenoxy)naphthalen-1-yl]-6-[difluoro(phenyl)methyl]pyrimidine-2,4(1H,3H)-dione (rac)]			IC50 [1]: 0.2 µM
CCCOc1cc(C#N)c(Oc2ccccc2C)cc1-n1c(=O)cc(C(F)(F)F)[nH]c1=O (racemic) [Example 39, 4-(2,6-Dioxo-4-(trifluoromethyl)-2,3-dihydropyrimidin-1(6H)-yl)-5-propoxy-2-(o-tolyloxy)benzonitrile (rac)]	3 µM	20 µM	IC50 [4]: 0.723 µM; IC50 [1, 5]: 4.3 µM
Cc1ccccc1Oc1cc(-n2c(=O)cc(C(F)(F)F)[nH]c2=O)c(OC(F)(F)F)cc1C#N (racemic) [Example 55, 4-[2,6-Dioxo-4-(trifluoromethyl)-3,6-dihydropyrimidin-1(2H)-yl]-2-(2-methylphenoxy)-5-(trifluoromethoxy)benzonitrile (rac)]	6 µM		IC50 [4]: 0.925 µM; IC50 [1, 5]: 4 µM
COc1cc(C#N)c(Oc2ccccc2C)cc1-n1c(=O)cc(-c2ccc(C(F)(F)F)cc2)[nH]c1=O (racemic) [Example 69, 4-{2,6-Dioxo-4-[4-(trifluoromethyl)phenyl]-3,6-dihydropyrimidin-1(2H)-yl}-5-methoxy-2-(2-methylphenoxy)benzonitrile (rac)]		> 30 µM	
COc1cc(C#N)c(Oc2ccccc2C)cc1-n1c(=O)cc(C(N)=O)[nH]c1=O (racemic) [Example 73, 1-[4-Cyano-2-methoxy-5-(2-methylphenoxy)phenyl]-2,6-dioxo-1,2,3,6-tetrahydropyrimidine-4-carboxamide (rac)]		> 30 µM	
Cc1ccccc1Oc1cc(-n2c(=O)cc(C(F)(F)F)[nH]c2=O)c(Cl)cc1C#N (single isomer, unassigned) [Example 13, 5-Chloro-4-[2,6-dioxo-4-(trifluoromethyl)-3,6-dihydropyrimidin-1(2H)-yl]-2-(2-methylphenoxy)benzonitrile (atrop 2)]	3.28 µM		
COc1ccc(Oc2ccccc2C)cc1-n1c(=O)cc(C(F)(F)F)[nH]c1=O [AE1, 3-[2-Methoxy-5-(2-methylphenoxy)phenyl]-6-(trifluoromethyl)pyrimidine-2,4(1H,3H)-dione]	15 µM	> 30 µM	IC50 [1]: 19 µM
Cc1ccccc1Oc1ccc(Cl)c(-n2c(=O)cc(C(F)(F)F)[nH]c2=O)c1 [AE3, 3-[2-Chloro-5-(2-methylphenoxy)phenyl]-6-(trifluoromethyl)pyrimidine-2,4(1H,3H)-dione]		30 µM	IC50 [1]: 12 µM
Cc1cccc(C)c1Oc1cc(-n2c(=O)cc(C(F)(F)F)[nH]c2=O)c(F)cc1C#N [Example 1, 2-(2,6-Dimethylphenoxy)-4-[2,6-dioxo-4-(trifluoromethyl)-3,6-dihydropyrimidin-1 (2H)-yl]-5-fluorobenzonitrile]	6.25 µM	18 µM	
Cc1ccccc1Oc1cc(-n2c(=O)cc(C(F)(F)F)[nH]c2=O)c(I)cc1C#N [Example 14, 4-[2,6-Dioxo-4-(trifluoromethyl)-3,6-dihydropyrimidin-1(2H)-yl]-5-iodo-2-(2-methylphenoxy)benzonitrile (rac)]	2.7 µM	10.4 µM	
Cc1ccccc1Oc1cc(-n2c(=O)cc(C(F)(F)F)[nH]c2=O)c(F)cc1C#N [Example 45, 4-[2,6-Dioxo-4-(trifluoromethyl)-3,6-dihydropyrimidin-1(2H)-yl]-5-fluoro-2-(2-methylphenoxy)benzonitrile]		30 µM	
CCc1cccc(C)c1Oc1cc(-n2c(=O)cc(C(F)(F)F)[nH]c2=O)c(F)cc1C#N [Example 59, 4-[2,6-Dioxo-4-(trifluoromethyl)-3,6-dihydropyrimidin-1(2H)-yl]-2-(2-ethyl-6-methylphenoxy)-5-fluorobenzonitrile]			IC50 [1]: 16 µM
